The experiment relates to WM9 cells. Put plainly: Cell proliferation assay (MTT), WM9 melanoma cells. The experiment is classed as cell-based, human. To be noted: day 6. Here is the method: For cell proliferation assays, cells were grown in 10% FCS culture medium containing various amounts of IFNs and/or sodium stibogluconate in 96 well plates and cultured at 37° C. for 3 or 6 days as indicated. The numbers of viable cells in proliferation assays were determined by MTT assays as described in Phatak et al., J. Immunol. 167, 3391 (2001).
Median effect analysis (Chou et al., Adv. Enzyme Regul. 22, 27 (1984)), which provides the most general form of studying the interactions between drugs, was utilized to analyze the interaction between sodium stibogluconate and IFN-alpha or IFN-beta. Dose response curves were generated for each drug alone, and also the combinations. Median effect plots were generated for IFNs alone, sodium stibogluconate alone, and the combination. The combination index (CI) was determined and plotted vs. fraction affected (FA). Data were analyzed in both modes, mutually exclusive and mutually nonexclusive. The interaction between two mutually nonexclusive drugs is described by the Equation CI=D1/D×1+D2/D×2+D1D2/D×1D×2, where D×1 and D×2 are the doses of drug 1 and drug 2 that are required to inhibit growth×%. […] When CI<1, drugs are synergistic, when CI=1, drugs are additive, and when CI>1, drugs are antagonistic.

B1: IFN-beta: Recombinant human IFN-beta (protein, UniProt P01574 22-187, looked up)
Interferon beta: MSYNLLGFLQRSSNFQCQKLLWQLNGRLEYCLKDRMNFDIPEEIKQLQQFQKEDAALTIYEMLQNIFAIFRQDSSSTGWNETIVENLLANVYHQINHLKTVLEEKLEKEDFTRGKLMSSLHLKRYYGRILHYLKAKEYSHCAWTIVRVEILRNFYFINRLTGYLRN
B1: the “growth of WM9 cells with IFN alone” value was “more potently”.

Values taken from patent US20030161893A1, “PTPase inhibitors and methods of using the same” (priority 2001, published 2003).
